Values of other authors in patent US12220497B2, “Materials and methods for decontaminating animal integument” (dated 2025).

Key:
[1] = test system: rabbit; conditions: intact skin
[2] = test system: rat; conditions: intact skin

Molecule: C=CC#N
- dermal LD50 (rabbit) [1]: 63 mg/kg

Molecule: mercuric chloride
- dermal LD50 (rat) [2]: 41 mg/kg

Molecule: [N-]=[N+]=[N-]
- dermal LD50 (rabbit) [1]: 20 mg/kg
